The nature of assay [1]: qHTS assay for measurement of the activity of small molecule inhibitors on Zika virus induced Caspase-3 activity in human iPSC derived neural progenitor cells (hNPCs) (AID 1224857). Further: % of control where 0% means no effect; nearly all actives have a fitted effect of over 65% in size. The settings on record: hNPCs ZIKV-induced caspase-3/7, Caspase-Glo luminescence, 6 h; at 92.8 µM (top of the series) unless noted. The procedure, abridged: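 Zika virus (2 FFU/cell) infection of human iPSC-derived NPCs, 6 h, following 1 h compound preincubation. Read-out: Caspase-Glo 3/7 luminescence.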
In general terms: qHTS replaces the single test concentration by a dilution series.

Assay [2] can be described thus: qHTS assay for measurement of the activity of small molecule inhibitors on Zika virus induced Caspase-3 activity in human astrocytoma cells (AID 1224859).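 Further: plate controls were ZIKV-infected untreated cells for no effect and uninfected cells for full effect.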 The settings on record: SNB-19 ZIKV-induced caspase-3/7, luminescence, 6 h; at 92.8 µM (top of the series) unless noted. In outline:
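Caspase activation in ZIKV-infected SNB-19 cells (2 FFU/cell, 6 h) measured by Caspase-Glo 3/7 luminescence after 30 min RT; compound pre-incubated 1 h; normalised to uninfected and infected controls.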

Assay [3] is described as follows: NS1 protein of Zika virus - qHTS assay to identify small molecule inhibitors in human HEK 293 cells (AID 1347053).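 Further: plate controls were infected untreated cells for no effect and uninfected cells for full effect; nearly all actives have a fitted effect of over 55% in size.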 The settings on record: HEK293 ZIKV MR766 infection, NS1 TR-FRET, 24 h; at 92.8 µM (top of the series). In outline:
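HEK 293; 20 h pre-culture, 37 C/5% CO2; cpd 1 h pre-infection; ZIKV MR766, MOI = 0.5, 24 h, 37 C; TR-FRET NS1 readout (two anti-NS1 Abs); norm. to no-virus vs infected.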

The nature of assay [4]: qHTS for Inhibitors of the Functional Ribonucleoprotein Complex (vRNP) of Lassa (LASV) Arenavirus: LASV Primary Screen - GLuc reporter signal (AID 1347082; calls by dose curve; tested in HEK293 reporter line; further: on the % scale 0 is the no-effect control and ±100 the full control effect; nearly all actives have a fitted effect of over 60% in size). The settings on record: LASV minigenome vRNP, Gaussia luciferase reporter; at 57.5 µM (top of the series) unless noted.
Assay [5] is described as follows: qHTS for Inhibitors of the Functional Ribonucleoprotein Complex (vRNP) of Lassa (LASV) Arenavirus: Viability assay - alamar blue signal for LASV Primary Screen (AID 1347083; calls by dose curve; tested in HEK293 reporter line; further: on the % scale 0 is the no-effect control and ±100 the full control effect; nearly all actives have a fitted effect of over 80% in size). The settings on record: cell viability, alamar blue fluorescence (LASV minigenome counter-screen); at 57.5 µM (top of the series) unless noted.
A short description of assay [6]: qHTS for Inhibitors of the Functional Ribonucleoprotein Complex (vRNP) of Lymphocytic Choriomeningitis Arenaviruses (LCMV): Viability assay - alamar blue signal for LCMV Primary Screen (AID 1347085; calls by dose curve; tested in HEK293 reporter line; further: on the % scale 0 is the no-effect control and ±100 the full control effect; nearly all actives have a fitted effect of over 80% in size). The settings on record: alamar blue viability counter-screen, LCMV vRNP screen cells; at 57.5 µM (top of the series) unless noted.
For assay [7], the target named is Nucleoprotein (Lymphocytic choriomeningitis virus (strain Armstrong)) (UniProt P09992). Put plainly: qHTS for Inhibitors of the Functional Ribonucleoprotein Complex (vRNP) of Lymphocytic Choriomeningitis Arenaviruses (LCMV): LCMV Primary Screen - GLuc reporter signal (AID 1347086; calls by dose curve; further: on the % scale 0 is the no-effect control and ±100 the full control effect; nearly all actives have a fitted effect of over 70% in size). The settings on record: LCMV minigenome vRNP cell assay, Gaussia luciferase reporter; at 57.5 µM (top of the series) unless noted.

Assay [8] in a line: qHTS of pediatric cancer cell lines to identify multiple opportunities for drug repurposing: Primary screen for TC32 cells (AID 1347089). Further: on the % scale 0 is the no-effect control and ±100 the full control effect; nearly all actives have a fitted effect of over 60% in size. The settings on record: TC32 Ewing sarcoma viability, CellTiter-Glo luminescence, 48 h; at 92.2 µM (top of the series) unless noted. The procedure, abridged: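 A viability screen of TC32 cells was run over 48 h, with primary MIPE doses spanning 0.78 nM–46 µM and NPC doses 0.59 nM–46 µM. ATP luminescence (CellTiter-Glo) served as the read-out.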

The nature of assay [9]: qHTS of pediatric cancer cell lines to identify multiple opportunities for drug repurposing: Primary screen for DAOY cells (AID 1347090).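 Further: plate controls were DMSO for no effect and bortezomib for full effect; nearly all actives have a fitted effect of over 55% in size.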 The settings on record: DAOY medulloblastoma viability, CellTiter-Glo luminescence, 48 h; at 92.7 µM (top of the series). In outline: (§1)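 Eight- or eleven-point concentration series, 48 h treatment at 37 degrees C in growth media; readout CellTiter-Glo luminescence. Potency and efficacy were taken from the concentration-response curves.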

Assay [10] in a line: qHTS of pediatric cancer cell lines to identify multiple opportunities for drug repurposing: Primary screen for SJ-GBM2 cells (AID 1347091).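 Further: plate controls were DMSO neutral control for no effect and bortezomib for full effect.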 The settings on record: SJ-GBM2 viability, CellTiter-Glo luminescence, 48 h; at 92.7 µM (top of the series). In outline: as §1
The nature of assay [11]: qHTS of pediatric cancer cell lines to identify multiple opportunities for drug repurposing: Primary screen for A673 cells (AID 1347092). Further: on the % scale 0 is the no-effect control and ±100 the full control effect; nearly all actives have a fitted effect of over 45% in size. The settings on record: A673 Ewing sarcoma viability, CellTiter-Glo ATP luminescence, 48 h; at 92.7 µM (top of the series). In outline: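 Titration-based qHTS on A673 cells: MIPE compounds spanned 11 points (0.78 nM to 46 µM final), NPC compounds 8 points (0.59 nM to 46 µM final). Viability after 48 h was measured by ATP luminescence.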

A short description of assay [12]: qHTS of pediatric cancer cell lines to identify multiple opportunities for drug repurposing: Primary screen for SK-N-MC cells (AID 1347093).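 Further: plate controls were DMSO neutral control for no effect and bortezomib for full effect.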 The settings on record: SK-N-MC viability, CellTiter-Glo luminescence, 48 h; at 92.7 µM (top of the series).
Assay [13] is described as follows: qHTS of pediatric cancer cell lines to identify multiple opportunities for drug repurposing: Primary screen for BT-37 cells (AID 1347094).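 Further: plate controls were DMSO for no effect and bortezomib for full effect.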 The settings on record: BT-37 viability, CellTiter-Glo luminescence, 48 h; at 116 µM (top of the series) unless noted. In outline: (§2)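 Luminescence from CellTiter-Glo served as readout of metabolically active cells after 48 h compound exposure. Titrations: MIPE 11-point, from 0.78 nM; NPC 8-point, from 0.59 nM (final). Concentration-response curves came straight from the primary screen.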

The nature of assay [14]: qHTS of pediatric cancer cell lines to identify multiple opportunities for drug repurposing: Primary screen for NB-EBc1 cells (AID 1347095).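 Further: plate controls were DMSO neutral control for no effect and bortezomib for full effect.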 The settings on record: NB-EBc1 neuroblastoma viability, CellTiter-Glo luminescence, 48 h; at 92.7 µM (top of the series).
Assay [15] in a line: qHTS of pediatric cancer cell lines to identify multiple opportunities for drug repurposing: Primary screen for U-2 OS cells (AID 1347096).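 Further: plate controls were DMSO wells for no effect and bortezomib positive control wells for full effect; nearly all actives have a fitted effect of over 50% in size.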 The settings on record: U-2 OS viability, CellTiter-Glo luminescence, 48 h; at 92.7 µM (top of the series) unless noted. In outline: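 Cells (500-1,000/well) in growth media were settled 5 h at 37 degrees C, then given compounds for 48 h. Viability was read as CellTiter-Glo luminescence. Primary runs used MIPE at 11 points (0.78 nM-46 µM) and NPC at 8 points (0.59 nM-46 µM); follow-ups used 11 points.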

The nature of assay [16]: qHTS of pediatric cancer cell lines to identify multiple opportunities for drug repurposing: Primary screen for Saos-2 cells (AID 1347097). Further: on the % scale 0 is the no-effect control and ±100 the full control effect; nearly all actives have a fitted effect of over 40% in size. The settings on record: Saos-2 viability, CellTiter-Glo ATP luminescence, 48 h; at 92.7 µM (top of the series). In outline:
as §2

A short description of assay [17]: P-glycoprotein substrates identified in KB-8-5-11 adenocarcinoma cell line, qHTS therapeutic library screen (AID 1346987). Further: on the % scale 0 is the no-effect control and ±100 the full control effect; nearly all actives have a fitted effect of over 65% in size. The settings on record: KB-8-5-11 (P-gp overexpressing) viability, CellTiter-Glo, 72 h; at 93.4 µM (top of the series). The procedure, abridged:
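P-gp-mediated resistance screen: KB-8-5-11 cells treated 72 h with compounds in dose-response. CellTiter-Glo viability.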

Assay [18] can be described thus: High-throughput drug toxicity screening in the BPDCN cell line Cal-1 (AID 1224825; call rule not given here). The settings on record: Cal-1 BPDCN cell viability, qHTS; at 45.8 µM (top of the series). In outline: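 Exponentially growing Cal-1 cells, 500 per well in phenol red-free RPMI with 10% FBS, were exposed to compounds for 48 h at 37 °C, 5% CO2. Viability was read by CellTiter-Glo luminescence and normalised to DMSO (100%) and 9.2 uM bortezomib (0%).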

The nature of assay [19]: qHTS Screen of the MIPE 4.0 Collection Against Ewings Sarcoma (TC32) (AID 1259256). Further: nearly all actives have a fitted effect of over 45% in size. The settings on record: TC32 Ewing sarcoma viability, CellTiter-Glo, 48 h; at 45.8 µM (top of the series). The procedure, abridged:
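Compound titrations go onto adherent log-phase cells 4 h after seeding, incubate 48 h at 37C, then CellTiter-Glo luminescence reports viability relative to DMSO and cell-free controls.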

Assay [20] can be described thus: qHTS assay to identify small molecule inhibitors of chordoma cells - UCH-2 (AID 1259356). Further: on the % scale 0 is the no-effect control and ±100 the full control effect. The settings on record: UCH-2 chordoma viability, CellTiter-Glo ATP luminescence, 48 h; at 46.1 µM (top of the series).

Several values for one entry are separate records, joined by “and”; a condition that tells them apart may be missing. Equal values may be shown once. The entries are a selection whose mix differs from that of the whole data set. Results filed as inconclusive are left out. Activity calls are given as the source filed them. Unless noted, the call rests on the fitted dose curve; in most records, active means well fitted curve in the direction sought with a large enough effect; inconclusive means small, poorly fitted or top-dose-only effect, or another doubt; inactive means no such curve, though single readings can be large; an effect the other way counts as inactive or inconclusive.

For the compound `CCC(=O)N(c1ccccc1)C1(COC)CCN(CCn2nnn(CC)c2=O)CC1`, the activity change, negative = inhibition in [1] was inactive: 2.27%; in assay [2], inactive: 2.92%; in assay [3], inactive: -23.6%; in assay [4] it was inactive: 9.23% [at 115 µM]; in [7], inactive: 25.2% [at 115 µM]. The activity change, negative = reduced viability in assay [5] was inactive: 7.69% [at 115 µM]. Moreover, the activity change, negative = lower viability in [6] is inactive: 25.8% [at 115 µM]. Also, the activity change, negative = cytotoxic is inactive: 3.51% in assay [8]; inactive: -1.84% in assay [9]; inactive: -1.35% in assay [10]; inactive: -13.1% in assay [11]; inactive: -1.19% in assay [12]; inactive: -0.0411% in assay [13]. The activity change, negative = cytotoxic is inactive: -10.9% in [14], inactive: -0.36% in assay [15] and inactive: -22.1% in assay [16].
In the case of `CCC(=O)N(c1ccccc1)C1(COC)CCN(CCc2cccs2)CC1`, the activity change, negative = inhibition in assay [1] was inactive: 37.5%; in [2], inactive: 18%; in assay [3], inactive: -14.1%; in [4] it was inactive: -28.7% [at 115 µM]. Moreover, in [17], the activity change, negative = cytotoxicity is inactive: -27.9%. For the same compound, the activity change, negative = reduced viability in assay [5] is inactive: -5.78% [at 115 µM]. Besides, the activity change, negative = lower viability in assay [6] is inactive: -2.21% [at 115 µM]. Besides, the activity change, negative = cytotoxic in [8] is inactive: -2.93%; in assay [9] it was inactive: -12.7%; in assay [10], inactive: -17.4%; in [13], inactive: -24.9%; in assay [14], inactive: -12.8%; in assay [15], inactive: -12.1%. In [16], the activity change, negative = cytotoxic was inactive: -26.6%.
`CN(CCCl)CCCl` gave a viability (% of control) in assay [18] of 2.85%. The activity change, negative = inhibition in assay [1] is inactive: 3.38% [at 45.7 µM] and inactive: -2.15% [at 45.7 µM]; in assay [2] it was inactive: 0.926% [at 45.7 µM] and inactive: -18.6% [at 45.7 µM]; in assay [20] it was inactive: 7.16%; in [4], inactive: -1.29% and inactive: 5.06%; in assay [7], inactive: 6.46% and inactive: 24.8%. Further, the viability (percent of control) in [19] was inactive: 26.1%. Further, in assay [5], the activity change, negative = reduced viability was inactive: 1.66% and inactive: 0.918%. Moreover, in assay [6], the activity change, negative = lower viability is inactive: 8.06% and inactive: 21.8%. For the same compound, the activity change, negative = cytotoxic in assay [8] was inactive: 0.236% [at 45.8 µM] and inactive: 3.11% [at 45.8 µM]; in [13], inactive: -16.8% [at 57.3 µM]; in assay [15], inactive: 9.24% [at 46 µM] and inactive: 5.64% [at 46 µM].
Consider `CCC(=O)N(c1ccccc1)C1CCN(CCc2ccccc2)CC1`, for which the activity change, negative = inhibition in assay [20] is inactive: -1.66%.

Values taken from PubChem BioAssay (NCATS).
